Experimental data taken from patent US20150011423A1, “MEANS AND METHODS FOR ASSESSING KIDNEY TOXICITY” (BASF SE, priority 2011, published 2015).
Marks after values point to notes of the source that are not given here.

Test system: rats
Assay: 28-day repeated dose study in rats with mass spectrometry-based plasma metabolite profiling (GC-MS, LC-MS, SPE-LC-MS); treatment ratios versus control
Conditions: female rats; for Creatinine, treatment ratio versus control / Galactose, lipid fraction, treatment ratio versus control / Glucuronic acid, treatment ratio versus control / Glycerol-3-phosphate, polar fraction, treatment ratio versus control / Glycine, treatment ratio versus control / Histidine, treatment ratio versus control / Isoleucine, treatment ratio versus control / Leucine, treatment ratio versus control / Lysophosphatidylcholine (C18:1), treatment ratio versus control / Phosphatidylcholine No 02, treatment ratio versus control / TAG No 05, treatment ratio versus control / Threonic acid, treatment ratio versus control / Threonine, treatment ratio versus control / Uracil, treatment ratio versus control / Valine, treatment ratio versus control / Xylitol, treatment ratio versus control: Table 3a tubular defect; for Cysteine, treatment ratio versus control / Glycerol, polar fraction, treatment ratio versus control / Hippuric acid, treatment ratio versus control / Indole-3-acetic acid, treatment ratio versus control / Spermidine, treatment ratio versus control / Sucrose, treatment ratio versus control: Table 3b tubular defect

Creatinine, treatment ratio versus control (day 14, high dose): 1.61^
Galactose, lipid fraction, treatment ratio versus control (day 14, high dose): 2.02 *
Glucuronic acid, treatment ratio versus control (day 14, high dose): 2.55 *
Glycerol-3-phosphate, polar fraction, treatment ratio versus control (day 14, high dose): 0.98^
Glycine, treatment ratio versus control (day 14, high dose): 1.17^
Histidine, treatment ratio versus control (day 14, high dose): 1.31 *
Isoleucine, treatment ratio versus control (day 14, high dose): 1.14^
Leucine, treatment ratio versus control (day 14, high dose): 1.26^
Lysophosphatidylcholine (C18:1), treatment ratio versus control (day 14, high dose): 1.34 *
Phosphatidylcholine No 02, treatment ratio versus control (day 14, high dose): 1.99 *
TAG No 05, treatment ratio versus control (day 14, high dose): 1.65 *
Threonic acid, treatment ratio versus control (day 14, high dose): 1.11^
Threonine, treatment ratio versus control (day 14, high dose): 1.57 *
Uracil, treatment ratio versus control (day 14, high dose): 0.94^
Valine, treatment ratio versus control (day 14, high dose): 1.19 *
Xylitol, treatment ratio versus control (day 14, high dose): 1.32 *
Cysteine, treatment ratio versus control (day 14, high dose): 0.86
Glycerol, polar fraction, treatment ratio versus control (day 14, high dose): 0.83
Hippuric acid, treatment ratio versus control (day 14, high dose): 0.55
Indole-3-acetic acid, treatment ratio versus control (day 14, high dose): 0.62 *
Spermidine, treatment ratio versus control (day 14, high dose): 0.54 *
Sucrose, treatment ratio versus control (day 14, high dose): 1.02
Creatinine, treatment ratio versus control (day 28, high dose): 1.61
Galactose, lipid fraction, treatment ratio versus control (day 28, high dose): 2.58 *
Glucuronic acid, treatment ratio versus control (day 28, high dose): 2.03 *
Glycerol-3-phosphate, polar fraction, treatment ratio versus control (day 28, high dose): 1.25
Glycine, treatment ratio versus control (day 28, high dose): 1.18
Histidine, treatment ratio versus control (day 28, high dose): 1.21 *
Isoleucine, treatment ratio versus control (day 28, high dose): 1.32
Leucine, treatment ratio versus control (day 28, high dose): 1.36
Lysophosphatidylcholine (C18:1), treatment ratio versus control (day 28, high dose): 1.42 *
Phosphatidylcholine No 02, treatment ratio versus control (day 28, high dose): 1.76 *
TAG No 05, treatment ratio versus control (day 28, high dose): 1.5
Threonic acid, treatment ratio versus control (day 28, high dose): 1.21
Threonine, treatment ratio versus control (day 28, high dose): 1.46 *
Uracil, treatment ratio versus control (day 28, high dose): 0.94
Valine, treatment ratio versus control (day 28, high dose): 1.42
Xylitol, treatment ratio versus control (day 28, high dose): 1.88
Cysteine, treatment ratio versus control (day 28, high dose): 1.06
Glycerol, polar fraction, treatment ratio versus control (day 28, high dose): 0.65
Hippuric acid, treatment ratio versus control (day 28, high dose): 0.5 *
Indole-3-acetic acid, treatment ratio versus control (day 28, high dose): 0.81
Spermidine, treatment ratio versus control (day 28, high dose): 1.17
Sucrose, treatment ratio versus control (day 28, high dose): 1.37
Compound: CC(=O)/C=C/C1=C(C)CCCC1(C)C [Beta-ionone]
